Assay results as given in PubChem BioAssay AID572 (SRMLSC, 2007).
This is a selection; strong and weak results do not stand in their true shares. Active and inactive are the calls of the source.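 The calls were made as follows: active = viability at or below 10% of carrier control in both of two separate runs; inconclusive = viability at or below 10% in only one of the two runs; inactive = the rest.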

Assay: SK-BR-3 cell growth inhibitors, pilot screen, 24 h, human (AID 572);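 also: compound exposure lasted between 18 and 24 h rather than exactly 24 h; 100% = carrier-treated control wells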
Conditions: SK-BR-3 viability, CellTiter-Glo luminescence, at 10 µM, hits give low values

Structure (SMILES)	viability
Cc1ccc(C)c(NP(C)(=O)Oc2ccccc2)c1 (stereo not given)	inactive: 113%
CP(=S)(Nn1cnnc1)Oc1ccccc1 (stereo not given)	inactive: 101%
CP(=O)(Nc1ccccn1)Oc1ccccc1 (stereo not given)	inactive: 88%
CP(=O)(Nc1ccc2c(c1)OCCO2)Oc1ccccc1 (stereo not given)	inactive: 114%
CN(C)CCOC(=O)C(O)(c1ccccc1)C1CCCCC1 (stereo not given)	inactive: 102%
